Data set [1] can be described thus: Stability of C22-PX formulations in PBS at 37°C. The format is physicochemical. The conditions noted are these: 48 h, 10 µg/ml.
The conditions of data set [2]: fresh 4T1 tumor homogenate, 37°C, 48 h, 10 µg/g tumor.

Regarding “2’-behenoyl-paclitaxel [Formulation C22-PX]”, the “C22-PX retained after incubation in PBS” value in data set [1] is on record as ~ 30%. Also, the “Solubility in different Miglyols” value (Miglyol 808, 810, 812, 818, room temperature, 24 h) is 51–73 µg/mg Miglyol. The “Increase of solubility in Miglyol 812 compared to PX” value (Miglyol 812) came out at 25 fold. Moreover, where the note is “different Miglyols, room temperature”, the “Increase of solubility in Miglyols compared to PX” value is recorded as 15–25 fold. Also, the “Solubility in Miglyol 812” value (room temperature, 24 h) is on record as 72.5 ± 17.1 µg/mg Miglyol. In data set [2], the “PX derived, % of the total C22-PX added” value is reported as 5–7%.

(Values after PMC3522796 (Cancer letters, 2012).)
